Test results as given in patent US4963363A, “Phospholipid delivery vehicle for aqueous-insoluble active ingredients” (priority 1989, dated 1990).

Test: Compatibility of lipid triglycerides with HXM solubilization and phospholipid emulsion

ability of triglyceride to solubilize HXM: poorly solubilize HXM
SMILES: CCCC(=O)OCC(COC(=O)CCC)OC(=O)CCC [tributyrin]
